{"source": "patent US11220527B2", "about": "“Peptides derived from the propeptide NTSR3 and their use in the treatment of depression” (CENTRE NATIONAL DE LA RECHERCHE SCIENTIFIQUE, priority 2016, dated 2022)", "key": {"[1]": {"conditions": "cited from earlier work"}, "[2]": {"molecular_target": "T1, TREK-1 channel (Homo sapiens, UniProt O95069)", "T1 sequence (O95069 1-426)": "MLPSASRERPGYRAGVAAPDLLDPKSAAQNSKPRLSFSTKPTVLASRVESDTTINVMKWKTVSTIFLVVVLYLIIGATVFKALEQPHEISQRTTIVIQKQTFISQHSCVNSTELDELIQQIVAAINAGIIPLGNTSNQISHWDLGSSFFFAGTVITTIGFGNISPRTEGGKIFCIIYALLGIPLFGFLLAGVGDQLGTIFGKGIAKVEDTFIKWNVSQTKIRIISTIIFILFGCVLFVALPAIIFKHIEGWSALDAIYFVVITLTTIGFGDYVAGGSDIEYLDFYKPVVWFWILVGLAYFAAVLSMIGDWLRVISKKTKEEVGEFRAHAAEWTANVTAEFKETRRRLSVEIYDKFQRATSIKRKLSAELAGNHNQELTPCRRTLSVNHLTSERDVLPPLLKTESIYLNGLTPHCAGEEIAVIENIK", "conditions": "previously shown; cited from earlier work"}, "[3]": {"molecular_target": "T1, TREK-1 channel", "assay": "Whole-cell patch clamp of TREK-1 channel activity in hTREK-1/HEK293 cells", "format": "cell-based", "design": "expressed in transfected cells", "conditions": "dose-response measured at 0 mV, sigmoidal fit, FIG. 2; read-out: half-effect concentration (IC50) of TREK-1 channel activity inhibition", "experimental": "(§1) All experiments measuring the effect of spadin analogs and spadin were performed on ßTC3 or LNCaP or HEK293 cells stably transfected with the TREK-1 channel, hTREK-1/HEK293. The hTREK-1/HEK293 cell line was prepared in the laboratory. These cells also express a reporter gene: E-Green Fluorescent Protein (EGFP) enabling their visualization.\nThese cells were seeded at a density of 20,000 cells/dish of 35 mm diameter, 24 to 72 hours before being used.\nThe HEK293 cells were cultured in DMEM medium (Gibco)/10% fetal calf serum (FCS, ICN)/1% streptomycin+penicillin mixture (Gibco)/1% glutamax (Gibco)/0.5 mg/mL of G418 (Sigma) at 37° C. in the presence of 5% CO2.\n(§2) The LNCaP cells were cultured in DMEM medium (Gibco)/10% fetal calf serum (FCS, ICN)/1% streptomycin+penicillin mixture (Gibco)/1% glutamax (Gibco)/at 37° C. in the presence of 5% CO2. […] From day 2 to day 4, the cells were measured by electrophysiological methods.\n(§3) All measurements were made at room temperature, i.e. at 21-22° C. The hTREK-1/HEK293 cells were identified by the fluorescence emitted by EGFP after excitation at 480 nm. […]\n(§4) The cell culture medium was replaced with a solution 150 mM NaCl, 5 mM KCl, 3 mM MgCl2, 1 mM CaCl2, 10 mM HEPES/NaOH pH 7.4 containing 10 mM tetraethylammonium chloride, 3 mM 4-aminopyridine. […] The resting potential of the membrane of the measured cell was set at −80 mV. […]"}, "[4]": {"molecular_target": "T2, TREK-1 channels expressed on the ßTC3 cells (Mus musculus, UniProt P97438)", "T2 construct": "TREK-1 channels are present on the surface of beta-pancreatic cells such as beta-TC3 cells; endogenous in cells; host or cells: ßTC3 cells", "T2 sequence (P97438 1-426)": "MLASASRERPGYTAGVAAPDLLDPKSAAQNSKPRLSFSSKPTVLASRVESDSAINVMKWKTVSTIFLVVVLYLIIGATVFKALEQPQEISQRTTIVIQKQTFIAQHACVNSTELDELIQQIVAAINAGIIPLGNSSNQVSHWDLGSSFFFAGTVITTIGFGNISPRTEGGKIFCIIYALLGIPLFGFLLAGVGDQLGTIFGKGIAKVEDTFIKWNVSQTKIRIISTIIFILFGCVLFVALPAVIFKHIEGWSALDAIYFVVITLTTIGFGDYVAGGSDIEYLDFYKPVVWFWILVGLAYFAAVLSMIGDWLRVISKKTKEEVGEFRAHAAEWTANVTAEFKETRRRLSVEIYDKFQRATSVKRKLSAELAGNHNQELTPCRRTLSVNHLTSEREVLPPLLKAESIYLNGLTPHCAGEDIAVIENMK", "assay": "Whole-cell patch clamp, I=f(V), on ßTC3 cells activated with arachidonic acid", "format": "cell-based", "conditions": "previously activated with arachidonic acid, FIG. 7A", "experimental": "as §1\nThe ßTC3 cells were cultured in RPMI 1640 medium supplemented with 2.5% FCS, 50 μM beta-mercaptoethanol, 10 mM HEPES, 1 mM sodium pyruvate, 50 μg/ml gentamycin and 1% of a streptomycin+penicillin mixture, at 37° C. in the presence of 5% CO2.\nas §2, §3, §4"}, "[5]": {"test_system": "insulin secretion", "conditions": "Hivelin et al. 2016 [27]; cited from earlier work"}}}
{"smiles": "CC[C@H](C)[C@H](NC(=O)[C@@H]1CCCN1C(=O)CNC(=O)[C@H](CO)NC(=O)[C@H](Cc1c[nH]c2ccccc12)NC(=O)[C@H](CCCNC(=N)N)NC(=O)[C@@H]1CCCN1C(=O)[C@H](CC(C)C)NC(=O)[C@@H]1CCCN1C(=O)[C@H](C)NC(=O)[C@@H](N)Cc1ccc(O)cc1)C(=O)NCC(=O)N[C@H](C(=O)N[C@@H](CO)C(=O)N[C@@H](Cc1c[nH]c2ccccc12)C(=O)NCC(=O)N[C@@H](CC(C)C)C(=O)N[C@@H](CCCNC(=N)N)C(=O)O)C(C)C", "note": "[spadin]", "values": [{"measurement": "antidepressant behaviour in rodent models of depression", "setting": "[1]; previously shown [17]", "result": "behaves as an antidepressant"}, {"measurement": "time to antidepressant effect", "setting": "[1]; previously shown, 21 days for conventional antidepressants", "result": 4, "unit": "days"}, {"measurement": "blocking of TREK-1 channel activity", "setting": "[2]", "result": "specifically blocks TREK-1 channels"}, {"measurement": "IC50", "setting": "[3]", "result": 40, "unit": "nM"}, {"measurement": "blocking of arachidonic acid (aa) activated TREK-1 / potassium currents on ßTC3 cells", "setting": "[4]", "result": "capable of blocking the TREK-1 channels"}, {"measurement": "insulin secretion further to hyperglycemia", "setting": "[5]", "result": "increase insulin secretion"}]}
